Assay results taken from patent US8962608B2, “Cycloalkylnitrile pyrazole carboxamides as janus kinase inhibitors” (Merck Sharp & Dohme Corp., priority 2011, dated 2015).

Amino acid sequences for entries named in this document (tags omitted). Residues count along the entry.
UniProt P23458, 875-1153: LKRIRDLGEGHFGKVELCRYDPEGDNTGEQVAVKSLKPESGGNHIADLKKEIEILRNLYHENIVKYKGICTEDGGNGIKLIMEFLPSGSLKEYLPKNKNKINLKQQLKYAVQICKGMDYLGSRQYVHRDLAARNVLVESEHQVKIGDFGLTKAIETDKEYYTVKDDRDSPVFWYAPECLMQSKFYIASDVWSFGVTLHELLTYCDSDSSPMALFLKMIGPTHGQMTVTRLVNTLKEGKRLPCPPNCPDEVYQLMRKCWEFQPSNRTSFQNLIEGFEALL

Target: JAK1 (recombinant purified GST-tagged catalytic domain) (Homo sapiens (Human), UniProt P23458)
Test: biochemical
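Note: biochemical assay with HTRF read-out.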

Row | pIC50 | Compound
1 | 9.60 | CC(C)(C(=O)O)c1ccc(Nc2nn([C@H]3CCC(N4CC5(CCC5)C4)C[C@@H]3C#N)cc2C(N)=O)cc1 (single isomer, unassigned) [Example 28-75, 2-[4-({1-[(1S,2S,4R or 1R,2R,4S)-4-(2-azaspiro[3.3]hept-2-yl)-2-cyanocyclohexyl]-4-carbamoyl-1H-pyrazol-3-yl}amino)phenyl]-2-methylpropanoic acid]
2 | 9.70 | CC1(C)CN([C@@H]2CC[C@H](n3cc(C(N)=O)c(Nc4ccc([C@@H](O)C(F)(F)F)cc4)n3)[C@@H](C#N)C2)C1 (single isomer, unassigned) [Example 28-81, 1-[(1S,2S,4R or 1R,2R,4S)-2-cyano-4-(3,3-dimethylazetidin-1-yl)cyclohexyl]-3-({4-[(1R or 1S)-2,2,2-trifluoro-1-hydroxyethyl]phenyl}amino)-1H-pyrazole-4-carboxamide]
3 | 8.70 | N#C[C@H]1C[C@H](N2CCC2)CC[C@@H]1n1cc(C(N)=O)c(Nc2ccc(Cl)c(F)c2)n1 (single isomer, unassigned) [Example 28-37, 1-[(1S,2S,4R or 1R,2R,4S)-4-azetidin-1-yl-2-cyanocyclohexyl]-3-[(4-chloro-3-fluorophenyl)amino]-1H-pyrazole-4-carboxamide]
4 | 9.35 | N#C[C@H]1C[C@@H](NCC(F)F)CC[C@@H]1n1cc(C(N)=O)c(Nc2ccc(S(=O)(=O)C(F)(F)F)cc2)n1 (single isomer, unassigned) [Example 28-165, 1-{(1S,2S,4S or 1R,2R,4R)-2-cyano-4-[(2,2-difluoroethyl)amino]cyclohexyl}-3-({4-[(trifluoro-methyl)sulfonyl]phenyl}amino)-1H-pyrazole-4-carboxamide]
5 | 9.26 | N#C[C@H]1C[C@@H](N2CCC2)CC[C@@H]1n1cc(C(N)=O)c(Nc2ccc([C@@H](O)C(F)(F)F)cc2)n1 (single isomer, unassigned) [Example 28-87, 1-[(1S,2S,4S or 1R,2R,4R)-4-azetidin-1-yl-2-cyanocyclohexyl]-3-({4-[(1R or 1S)-2,2,2-trifluoro-1-hydroxyethyl]phenyl}amino)-1H-pyrazole-4-carboxamide]
6 | 8.05 | N#C[C@H]1C[C@H](NCC(F)F)CC[C@@H]1n1cc(C(N)=O)c(Nc2ccnc(F)c2)n1 (single isomer, unassigned) [Example 28-106, 1-{(1S,2S,4R or 1R,2R,4S)-2-cyano-4-[(2,2-difluoroethyl)amino]cyclohexyl}-3-[(2-fluoropyridin-4-yl)amino]-1H-pyrazole-4-carboxamide]
7 | 9.70 | N#C[C@H]1C[C@@H](NCC2CC2)CC[C@@H]1n1cc(C(N)=O)c(Nc2ccc(S(=O)(=O)C(F)(F)F)cc2)n1 (single isomer, unassigned) [Example 28-172, 1-{(1S,2S,4S or 1R,2R,4R)-2-cyano-4-[(cyclopropylmethyl)amino]cyclo-hexyl}-3-({4-[(trifluoromethyl)sulfonyl]phen-yl}amino)-1H-pyrazolc-4-carboxamide]
8 | 9.52 | N#C[C@@H]1CCCC[C@H]1n1cc(C(N)=O)c(Nc2ccc(S(=O)(=O)C(F)F)cc2)n1 (single isomer, unassigned) [Example 43-6, 1-[(1S,2S or 1R,2R)-2-cyanocyclohexyl]-3-({4-[(difluoromethyl)sulfonyl]phenyl}amino)-1H-pyrazole-4-carboxamide]
9 | 9.00 | CC1(N[C@H]2CCC(n3cc(C(N)=O)c(Nc4ccc(Cl)cc4)n3)[C@@H](C#N)C2)COC1 (single isomer, unassigned) [Example 28-207, 3-[(4-chlorophenyl)amino]-1-{(1S,2S,4S or 1R,2R,4R)-2-cyano-4-[(3-methyloxetan-3-yl)amino]cyclohexyl}-1H-pyrazole-4-carboxamide]
10 | 8.70 | CC(C)(C)OC(=O)N[C@@H]1CC[C@H](C#N)C(n2cc(C(N)=O)c(Nc3ccc(F)cc3)n2)C1 (single isomer, unassigned) [Example 44-1, tert-Butyl[(1R,3S,4S or 1S,3R,4R)-3-{4-carbamoyl-3-[(4-fluorophenyl)amino]-1H-pyrazol-1-yl}-4-cyanocyclohexyl]carbamate]
11 | 9.00 | CC(C)(C)N[C@H]1CC[C@H](n2cc(C(N)=O)c(Nc3ccc(Cl)cc3)n2)[C@@H](C#N)C1 (single isomer, unassigned) [Example 28-5, 1-((1R,2R,4R or 1S,2S,4S)-4-(tert-Butylamino)-2-cyanocyclohexyl)-3-((4-chlorophenyl)amino)-1H-pyrazole-4-carboxamide]
12 | 8.52 | N#C[C@H]1C[C@H](NCCC(F)(F)F)CC[C@@H]1n1cc(C(N)=O)c(Nc2ccc(S(=O)(=O)C(F)(F)F)cc2)n1 (single isomer, unassigned) [Example 28-167, 1-{(1S,2S,4R or 1R,2R,4S)-2-cyano-4-[(3,3,3-trifluoropropyl)amino]cyclo-hexyl}-3-({4-[(trifluoro-methyl)sulfonyl]phenyl}amino)-1H-pyrazole-4-carboxamide]
13 | 9.82 | N#C[C@H]1C[C@H](NCC2CC2)CC[C@@H]1n1cc(C(N)=O)c(Nc2ccc(S(=O)(=O)C(F)(F)F)cc2)n1 (single isomer, unassigned) [Example 28-173, 1-{(1S,2S,4R or 1R,2R,4S)-2-cyano-4-[(cyclopropyl-methyl)amino]cyclohexyl}-3-({4-[(trifluoro-methyl)sulfonyl]phenyl}amino)-1H-pyrazole-4-carboxamide]
14 | 9.10 | CC(C)(C)N[C@H]1CCC(n2cc(C(N)=O)c(Nc3ccccc3)n2)[C@@H](C#N)C1 (single isomer, unassigned) [Example 28-215, 1-[(1S,2S,4S or 1R,2R,4R)-4-(tert-butylamino)-2-cyanocyclohexyl]-3-(phenylamino)-1H-pyrazole-4-carboxamide]
15 | 9.00 | N#C[C@H]1CC(N2CCC[C@H]2CF)CC[C@@H]1n1cc(C(N)=O)c(Nc2ccc(S(=O)(=O)C(F)(F)F)cc2)n1 (single isomer, unassigned) [Example 28-157, 1-{(1S,2S or 1R,2R)-2-cyano-4-[(2S)-2-(fluoromethyl)pyrrolidin-1-yl]cyclohexyl}-3-({4-[(trifluoro-methyl)sulfonyl]phenyl}amino)-1H-pyrazole-4-carboxamide]
16 | 10.22 | CC1(C)CN([C@H]2CC[C@H](n3cc(C(N)=O)c(Nc4ccc([C@H](O)C(F)(F)F)cc4)n3)[C@@H](C#N)C2)C1 (single isomer, unassigned) [Example 28-93, 1-[(1S,2S,4S or 1R,2R,4R)-2-cyano-4-(3,3-dimethylazetidin-1-yl)cyclohexyl]-3-({4-[(1S or 1R)-2,2,2-trifluoro-1-hydroxyethyl]phenyl}amino)-1H-pyrazole-4-carboxamide]
17 | 9.00 | N#C[C@H]1C[C@H](N2CC3(COC3)C2)CC[C@@H]1n1cc(C(N)=O)c(Nc2ccc(C(F)(F)F)cc2)n1 (single isomer, unassigned) [Example 28-124, 1-[(1S,2S,4R or 1R,2R,4S)-2-cyano-4-(2-oxa-6-azaspiro[3.3]hept-6-yl)cyclohexyl]-3-{[4-(trifluoromethyl)phenyl]amino}-1H-pyrazole-4-carboxamide]

Continued, compound first:

Row | Compound | pIC50
18 | N#C[C@H]1C[C@H](O)CC[C@@H]1n1cc(C(N)=O)c(Nc2ccc(Cl)nc2)n1 (single isomer, unassigned) [Example 25-12, 3-[(6-chloropyridin-3-yl)amino]-1-[(1S,2S,4R or 1R,2R,4S)-2-cyano-4-hydroxycyclohexyl]-1H-pyrazole-4-carboxamide] | 8.52
19 | N#C[C@H]1CCCC[C@@H]1n1cc(C(N)=O)c(Nc2ccc([C@@H](O)C(F)F)nc2)n1 (single isomer, unassigned) [Example 17-38, 1-[(1S,2S or 1R,2R)-2-cyanocyclohexyl]-3-({6-[(1R or 1S)-2,2-difluoro-1-hydroxyethyl]pyridin-3-yl}amino)-1H-pyrazole-4-carboxamide] | 9.00
20 | N#Cc1cncc(Nc2nn([C@H]3CCCC[C@@H]3C#N)cc2C(N)=O)c1 (single isomer, unassigned) [Example 17-74, 1-[(1R,2R or 1S,2S)-2-cyanocyclohexyl]-3-[(5-cyanopyridin-3-yl)amino]-1H-pyrazole-4-carboxamide] | 7.92
21 | N#C[C@H]1C[C@@H](NCC(F)F)CCC1n1cc(C(N)=O)c(Nc2ccc(S(=O)(=O)C(F)(F)F)cc2)n1 (mixture of isomers) [Example 27-14, 1-{(1S,2S,4S and 1R,2R,4R)-2-cyano-4-[(2,2-difluoroethyl)amino]cyclohexyl}-3-({4-[(trifluoromethyl)sulfonyl]phenyl)amino)-1H-pyrazole-4-carboxamide] | 9.60
22 | N#C[C@H]1CCCC[C@@H]1n1cc(C(N)=O)c(Nc2ccc(S(=O)(=O)N3CCOCC3)cc2)n1 (single isomer, unassigned) [Example 17-99, 1-[(1R,2R or 1S,2S)-2-cyanocyclohexyl]-3-{[4-(morpholin-4-ylsulfonyl)phenyl]amino}-1H-pyrazole-4-carboxamide] | 9.40
23 | N#C[C@H]1CCCC[C@@H]1n1cc(C(N)=O)c(Nc2ccc(OC(F)(F)F)cc2)n1 (single isomer, unassigned) [Example 17-106, 1-[(1S,2S or 1R,2R)-2-cyanocyclohexyl]-3-{[4-(trifluoromethoxy)phenyl]amino}-1H-pyrazole-4-carboxamide] | 9.00
24 | N#C[C@H]1CCCC[C@@H]1n1cc(C(N)=O)c(Nc2cccnc2)n1 (racemic) [Example 17-13, 1-[(1S,2S and 1R,2R)-2-cyanocyclohexyl]-3-(pyridin-3-ylamino)-1H-pyrazole-4-carboxamide] | 8.00
25 | CNC(=O)c1ccc(Nc2nn([C@H]3CCCC[C@H]3C#N)cc2C(N)=O)cc1 (racemic) [Example 17-14, 1-[(1S,2R and 1R,2S)-2-cyanocyclohexyl]-3-{[4-(methylcarbamoyl)phenyl]amino}-1H-pyrazole-4-carboxamide] | 7.08
26 | CS(=O)(=O)c1ccc(Nc2nn(C3CCCC[C@@H]3C#N)cc2C(N)=O)cc1F (mixture of isomers) [Example 17-8, 1-[(1S,2S and 1R,2R)-2-cyanocyclohexyl]-3-{[3-fluoro-4-(methylsulfonyl)phenyl]amino}-1H-pyrazole-4-carboxamide] | 8.70

pIC50: −log10 of the molar value.
